From PubChem BioAssay AID1469 (National Center for Advancing Translational Sciences (NCATS), 2008) come the findings set out here.

Protein sequences, listed by entry. Tags and fused reporters are not part of them.
UniProt P10828, whole entry: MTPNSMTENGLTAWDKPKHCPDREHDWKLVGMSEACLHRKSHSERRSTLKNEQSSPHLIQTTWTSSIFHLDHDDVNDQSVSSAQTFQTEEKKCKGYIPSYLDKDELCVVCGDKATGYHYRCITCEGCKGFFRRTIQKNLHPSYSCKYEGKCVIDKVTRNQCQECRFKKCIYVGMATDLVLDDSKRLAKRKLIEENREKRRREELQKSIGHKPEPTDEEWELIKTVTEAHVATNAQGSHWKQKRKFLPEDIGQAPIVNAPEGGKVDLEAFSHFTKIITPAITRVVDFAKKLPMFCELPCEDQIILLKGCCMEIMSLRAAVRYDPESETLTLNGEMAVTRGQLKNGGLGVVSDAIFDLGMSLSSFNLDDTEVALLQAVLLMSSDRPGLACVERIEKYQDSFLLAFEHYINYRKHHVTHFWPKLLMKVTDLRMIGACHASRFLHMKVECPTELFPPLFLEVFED

In the assay the target is Thyroid hormone receptor beta (Homo sapiens) (UniProt P10828). Kind of assay: qHTS for Inhibitors of the Interaction of Thyroid Hormone Receptor and Steroid Receptor Coregulator 2.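 Note: plate controls were bound peptide for no effect and peptide without receptor for full effect; nearly all actives have a fitted effect of over 50% in size.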 The following applies: TRbeta-SRC2 peptide binding, fluorescence polarization, receptor liganded with 1 µM T3. An excerpt: NIH Molecular Libraries Probe Production Network [MLPCN]
NIH Chemical Genomics Center [NCGC]
Assay Provider: R. Kip Guy, St. Jude Children's Research Hospital
Thyroid receptor (TR) regulates many homeostatic processes including basal metabolism, cardiovascular function, body weight, and lipid trafficking. TR modulators are potential therapeutics for obesity and hyperlipidemias but current thyroid analogs have undesirable side effects, particularly cardiac stimulation. To identify inhibitors that specifically prevent the interaction of TR with the steroid receptor coregulator 2 (SRC2), a fluorescence polarization assay was screened. This assay detects interaction of the ligand-binding domain of human TRb with a Texas Red labeled SRC2 peptide, corresponding to a 20 amino acid region of the nuclear receptor interaction domain (Arnold et al., 2006). Small molecule inhibitors that block the interaction of TR and SRC2 are detected by a decrease in fluorescence polarization.
Arnold, L. A.; Estebanez-Perpina, E.; Togashi, M.; Shelat, A.; Ocasio, C. A.; McReynolds, A. C.; Nguyen, P.; Baxter, J. D.; Fletterick, R. J.; Webb, P.; Guy, R. K. A high-throughput screening method to identify small molecule inhibitors of thyroid hormone receptor coactivator binding. Sci STKE 2006, p 13.
NCGC Assay Protocol Summary:
For screening, 5 uL/well 0.6 uM TRb and 20 nM SRC2 Texas Red in protein buffer (20mM Tris hydrochloride, 100mM NaCl, 10% glycerol, 1mM EDTA, 0.01% NP-40, 1mM DTT, 1uM T3 and 5% DMSO) was dispensed into black solid 1536-well plates (Grenier) using a solenoid-based dispenser. Following transfer of 23 nL compound or DMSO vehicle by a pin tool, the plates were centrifuged 15 s at 1000 RPM and incubated 5 hr at ambient temperature. […] Data were normalized to unbound (all components except TRb) and bound SRC2 Texas Red controls. In this assay, we provide % activity data for each concentration as well as potencies for the active compounds.
Keywords: NIH Roadmap, MLPCN, MLI, MLSMR, qHTS, NCGC, qHTS, thyroid hormone receptor, steroid receptor coactivator, fluorescence polarization

This is a selection; strong and weak results do not stand in their true shares. Active and inactive are the calls of the source. Calls come from the whole dose curve; as a rule, active = well fitted inhibition curve with a large enough effect; inconclusive = small, poorly fitted or top-dose-only effect, or effect the other way; inactive = flat fitted curve, though single readings scatter.

As for `CP(=O)(Oc1ccccc1)N1CCOC1=O` (centres undefined), the activity change, negative = inhibition (at 106 µM (top of the series)) was inactive: 8.31%. Still for that read-out and setting: the same measure for `CCc1ccc(OP(C)(=O)Nc2cccnc2)cc1` (centres undefined): inactive: -0.6%.

In the case of `COc1ccccc1OP(C)(=O)Nc1c(C)n(C)n(-c2ccccc2)c1=O` (centres undefined), the activity change, negative = inhibition (at 106 µM (top of the series)) was inactive: 2.46%. Same read-out and setting: the same measure for `OCCSCCO`: inactive: -4.96%; for `CP(=O)(Nc1ccc(Cl)cc1)Oc1ccc(F)cc1` (centres undefined): inactive: -4.35%; for `COc1ccccc1OP(C)(=O)Nc1ccccc1Br` (centres undefined): inactive: -2.51%. The same measure, in the same setting: the same measure for `CC(C)(C)c1ccc(OP(C)(=O)O)cc1`: inactive: -2.73%. Turning to `CN(C)C(=O)c1c([N+](=O)[O-])cc([N+](=O)[O-])cc1[N+](=O)[O-]`, the activity change, negative = inhibition (at 106 µM (top of the series)) is inactive: 2.46%. `CP(=O)(OC12CC3CC(CC(C3)C1)C2)OC12CC3CC(CC(C3)C1)C2`: under “at 106 µM (top of the series)”, the activity change, negative = inhibition was inactive: 1.24%. Still for that read-out and setting: as for `CCOC(=O)c1ccc(NP(C)(=O)Oc2ccc(Cl)cc2)cc1` (centres undefined), the figure is inactive: 5.35%.

On to `C/C1=C2N=C(/C=C3N=C(/C(C)=C4\[N-][C@@](C)([C@H]5N=C1[C@@](C)(CCC(=O)NC[C@H](C)OP(=O)([O-])O[C@@H]1[C@H](O)[C@H](n6cnc7cc(C)c(C)cc76)O[C@@H]1CO)[C@@H]5CC(N)=O)[C@](C)(CC(N)=O)[C@H]4CCC(N)=O)[C@@](C)(CC(N)=O)[C@@H]\3CCC(N)=O)C(C)(C)[C@@H]/2CCC(N)=O.[C-]#N.[Co+3]`, for which the activity change, negative = inhibition (at 53 µM (top of the series)) was inactive: -5.84%.

On to `Cc1cc(C)cc(OP(C)(=O)Nc2cccc(C(F)(F)F)c2)c1` (centres undefined), for which the activity change, negative = inhibition (at 53 µM (top of the series)) is inactive: 11.7%. `COc1ccc(OP(C)(=O)Nc2ccccc2Br)cc1` (centres undefined): for the setting “at 106 µM (top of the series)”, the activity change, negative = inhibition is inactive: -12.1%. Same read-out and setting: as for `COc1ccccc1OP(C)(=O)Nc1ccc(C)c(C)c1` (centres undefined), the figure is inactive: -4.62%; as for `Cc1nc2ccc3ccccc3c2o1.O=[N+]([O-])c1cc([N+](=O)[O-])c(O)c([N+](=O)[O-])c1`, inactive: -28%; as for `CP(=O)(OCCOc1ccccc1)OCCOc1ccccc1`, inactive: -2.24%. `COc1ccccc1OP(C)(=O)Nc1ccc(Br)cc1` (centres undefined): the activity change, negative = inhibition (at 106 µM (top of the series)) was inactive: -3.9%. Same read-out and setting: the same measure for `CN(C)CCOC(=O)C(O)(c1ccccc1)C1CCCC1` (centres undefined): inactive: -6.03%; for `COc1ccc(OP(C)(=O)Nc2ccccn2)cc1` (centres undefined): inactive: -4.52%; for `Cc1c(NP(C)(=O)Oc2ccc(C(C)C)cc2)c(=O)n(-c2ccccc2)n1C` (centres undefined): inactive: 0.654%. The same measure, in the same setting: the same measure for `O=[N+]([O-])c1cc([N+](=O)[O-])c(Nc2ccccn2)c([N+](=O)[O-])c1`: inactive: -4.19%; for `CCc1ccc(OP(C)(=O)O)cc1`: inactive: -7.31%; for `CP(=O)(Nc1ccccn1)Oc1ccccc1` (centres undefined): inactive: 1.6%. The same measure, in the same setting: as for `COc1ccccc1OP(C)(=O)Nc1ccc(C)cc1C` (centres undefined), the figure is inactive: -5.75%.
